System: K/1-NRKE tumor (ras^K-transformed NRKE cells)
Assay: In vivo activity against K/1-NRKE tumor xenograft in nude mice

7-N-ACETYLDEMETHYLLAVENDAMYCIN ISOAMYL ESTER
Number Dead Number Treated (150 Mg/Kg/Day IP once daily for 8 days): 0/7 | Number Dead Number Treated (300 Mg/Kg/Day IP once daily for 8 days): 0/7 | toxicity in tumor-bearing nude mice (in words) (even at doses up to 300 mg/kg/day): little or no toxicity
